Drawing on patent US20220009906A1, “ISOINDOLIN-1-ONE DERIVATIVES USEFUL AS GRK2 INHIBITORS” (priority 2020, published 2022), this text covers IC50 for three molecules.

Chains of the proteins cited; added tags and fusions are not shown.
UniProt P25098, whole entry: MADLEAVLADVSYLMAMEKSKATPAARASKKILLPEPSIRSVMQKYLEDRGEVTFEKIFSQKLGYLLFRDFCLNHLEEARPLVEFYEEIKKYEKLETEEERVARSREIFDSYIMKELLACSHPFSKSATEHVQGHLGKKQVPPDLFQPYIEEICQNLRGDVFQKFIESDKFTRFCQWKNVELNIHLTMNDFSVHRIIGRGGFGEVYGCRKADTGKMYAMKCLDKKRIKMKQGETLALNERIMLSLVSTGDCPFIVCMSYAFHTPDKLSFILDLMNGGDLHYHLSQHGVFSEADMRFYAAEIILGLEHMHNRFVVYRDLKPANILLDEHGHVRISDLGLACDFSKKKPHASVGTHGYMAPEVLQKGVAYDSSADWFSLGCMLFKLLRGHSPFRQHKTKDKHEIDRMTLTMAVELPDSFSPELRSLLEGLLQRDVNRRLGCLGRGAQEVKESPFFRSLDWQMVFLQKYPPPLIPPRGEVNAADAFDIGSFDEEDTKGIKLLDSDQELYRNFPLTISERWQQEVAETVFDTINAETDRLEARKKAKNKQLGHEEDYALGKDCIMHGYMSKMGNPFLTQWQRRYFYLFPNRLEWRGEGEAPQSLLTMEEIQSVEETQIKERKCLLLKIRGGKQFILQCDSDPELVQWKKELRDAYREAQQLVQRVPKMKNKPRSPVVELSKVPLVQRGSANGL

The assay deals with GRK2 (Homo sapiens, UniProt P25098). Put plainly: hGRK2 LANCE Ultra In Vitro Assay. The format is biochemical. To be noted: read-out: Biological Example 1 GRK2 Lancer IC50; 10 nM GRK2; 30 or 600 μM ATP (not stated which); multiple measurements listed individually. (In general: TR-FRET usually uses a lanthanide donor and a delayed reading to cut background.)
On to `C#CCOc1cccc(CN2Cc3ccc(-c4cn[nH]c4)cc3C2=O)c1`, for which the IC50 (in general, the concentration that inhibits the measured activity by half) is below 5 nM. With `Cc1cccc(C)c1CNC(=O)c1cccc(CN2C(=O)c3cc(-c4cn[nH]c4)ccc3C23CCCC3)c1`, the IC50 is below 5 nM. Regarding `C[C@H](c1cccc(C(=O)O)c1)N1Cc2ccc(-c3cn[nH]c3)cc2C1=O`, the IC50 was above 20000 nM.
